How the values were obtained:
human MCL1 protein [1] = molecular target: T1, human MCL1 protein (Homo sapiens, UniProt Q07820); experiment: SPR binding to immobilized MCL1 protein; settings: read-out: SPR Kd
human MCL1 protein [2] = molecular target: T1, human MCL1 protein; experiment: MCL1–Noxa HTRF (TR-FRET) assay; assay type: binding; settings: read-out: MCL1–Noxa HTRF IC50
Bcl-XL = Bcl-XL (Homo sapiens, UniProt Q07817); experiment: Bcl-XL–Bad HTRF assay; assay type: binding; settings: read-out: Bcl-XL–Bad HTRF IC50
Bcl-2 = Bcl-2 (Homo sapiens, UniProt P10415); experiment: Bcl-2–Bad HTRF assay; assay type: binding; settings: read-out: Bcl-2–Bad HTRF IC50
caspases 3 and 7 = experiment: Caspase 3 activation (Table 1, cell line not stated); settings: read-out: Caspase 3 activation EC50; cell line not given
AMO-1 = experiment: CellTiter-Glo cell viability, AMO-1; settings: read-out: Antiproliferative IC50u, 72 h, corrected by free fraction
HMC1–8 = experiment: CellTiter-Glo cell viability, HMC1–8; assay type: cell-based, human; settings: read-out: Antiproliferative IC50u, 72 h, corrected by free fraction
[3] = In vivo rat intravenous pharmacokinetics

Amino acid sequences for entries named in this document (tags omitted). Residues count along the entry.
UniProt Q07820, 173-321 limits assumed: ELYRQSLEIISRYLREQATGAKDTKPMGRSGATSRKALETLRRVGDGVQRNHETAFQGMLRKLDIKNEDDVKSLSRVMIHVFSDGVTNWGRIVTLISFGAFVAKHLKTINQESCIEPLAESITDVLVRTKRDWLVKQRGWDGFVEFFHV
UniProt Q07817, whole entry: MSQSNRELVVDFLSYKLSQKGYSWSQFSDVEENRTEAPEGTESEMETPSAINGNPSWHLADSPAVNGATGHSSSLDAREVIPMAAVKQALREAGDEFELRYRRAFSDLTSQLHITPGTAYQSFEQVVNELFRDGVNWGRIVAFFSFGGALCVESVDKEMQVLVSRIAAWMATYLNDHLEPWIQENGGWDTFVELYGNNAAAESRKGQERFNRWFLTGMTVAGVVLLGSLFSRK
UniProt P10415, whole entry: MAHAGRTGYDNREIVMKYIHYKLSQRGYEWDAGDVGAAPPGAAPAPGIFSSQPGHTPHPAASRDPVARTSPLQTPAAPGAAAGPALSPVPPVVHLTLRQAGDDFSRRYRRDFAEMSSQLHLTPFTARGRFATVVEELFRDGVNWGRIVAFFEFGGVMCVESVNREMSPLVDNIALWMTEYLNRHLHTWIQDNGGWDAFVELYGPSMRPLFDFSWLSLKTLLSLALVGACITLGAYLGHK

Kd (human MCL1 protein [1]): 21.4 nM
IC50 (human MCL1 protein [2]): 1.7 nM
IC50 (Bcl-XL): > 20000 nM
IC50 (Bcl-2): > 20000 nM
EC50 (caspases 3 and 7): 2500 nM
In vivo rat intravenous MRT [3]: 1.4 h
Compound: Cc1c2c(nn1C)COCCCCn1c(C(=O)O)c(CCCOc3cccc4ccccc34)c3cccc-2c31
IC50 (AMO-1): 1100 nM
IC50 (HMC1–8): > 7000 nM
